The test concerns the target low-density lipoprotein receptor-related protein 1 (LRP1), full-length, purified from human placenta (human) (UniProt Q07954). Kind of test: SPR; Biacore 3000; receptor amine-coupled to CM5 chip; ligand flowed in HBS-P (0.01 M HEPES pH 7.4, 0.15 M NaCl, 0.005% P20) with 1 mM CaCl2, 10 ul/min, 25 C; kinetic fit to a 1:1 Langmuir model. (In SPR one partner is held on a chip, and binding of the other changes the refractive index at the surface.)

Amino acid sequences for entries named in this document (tags omitted). Residues count along the entry.
UniProt Q07954, 20-4544: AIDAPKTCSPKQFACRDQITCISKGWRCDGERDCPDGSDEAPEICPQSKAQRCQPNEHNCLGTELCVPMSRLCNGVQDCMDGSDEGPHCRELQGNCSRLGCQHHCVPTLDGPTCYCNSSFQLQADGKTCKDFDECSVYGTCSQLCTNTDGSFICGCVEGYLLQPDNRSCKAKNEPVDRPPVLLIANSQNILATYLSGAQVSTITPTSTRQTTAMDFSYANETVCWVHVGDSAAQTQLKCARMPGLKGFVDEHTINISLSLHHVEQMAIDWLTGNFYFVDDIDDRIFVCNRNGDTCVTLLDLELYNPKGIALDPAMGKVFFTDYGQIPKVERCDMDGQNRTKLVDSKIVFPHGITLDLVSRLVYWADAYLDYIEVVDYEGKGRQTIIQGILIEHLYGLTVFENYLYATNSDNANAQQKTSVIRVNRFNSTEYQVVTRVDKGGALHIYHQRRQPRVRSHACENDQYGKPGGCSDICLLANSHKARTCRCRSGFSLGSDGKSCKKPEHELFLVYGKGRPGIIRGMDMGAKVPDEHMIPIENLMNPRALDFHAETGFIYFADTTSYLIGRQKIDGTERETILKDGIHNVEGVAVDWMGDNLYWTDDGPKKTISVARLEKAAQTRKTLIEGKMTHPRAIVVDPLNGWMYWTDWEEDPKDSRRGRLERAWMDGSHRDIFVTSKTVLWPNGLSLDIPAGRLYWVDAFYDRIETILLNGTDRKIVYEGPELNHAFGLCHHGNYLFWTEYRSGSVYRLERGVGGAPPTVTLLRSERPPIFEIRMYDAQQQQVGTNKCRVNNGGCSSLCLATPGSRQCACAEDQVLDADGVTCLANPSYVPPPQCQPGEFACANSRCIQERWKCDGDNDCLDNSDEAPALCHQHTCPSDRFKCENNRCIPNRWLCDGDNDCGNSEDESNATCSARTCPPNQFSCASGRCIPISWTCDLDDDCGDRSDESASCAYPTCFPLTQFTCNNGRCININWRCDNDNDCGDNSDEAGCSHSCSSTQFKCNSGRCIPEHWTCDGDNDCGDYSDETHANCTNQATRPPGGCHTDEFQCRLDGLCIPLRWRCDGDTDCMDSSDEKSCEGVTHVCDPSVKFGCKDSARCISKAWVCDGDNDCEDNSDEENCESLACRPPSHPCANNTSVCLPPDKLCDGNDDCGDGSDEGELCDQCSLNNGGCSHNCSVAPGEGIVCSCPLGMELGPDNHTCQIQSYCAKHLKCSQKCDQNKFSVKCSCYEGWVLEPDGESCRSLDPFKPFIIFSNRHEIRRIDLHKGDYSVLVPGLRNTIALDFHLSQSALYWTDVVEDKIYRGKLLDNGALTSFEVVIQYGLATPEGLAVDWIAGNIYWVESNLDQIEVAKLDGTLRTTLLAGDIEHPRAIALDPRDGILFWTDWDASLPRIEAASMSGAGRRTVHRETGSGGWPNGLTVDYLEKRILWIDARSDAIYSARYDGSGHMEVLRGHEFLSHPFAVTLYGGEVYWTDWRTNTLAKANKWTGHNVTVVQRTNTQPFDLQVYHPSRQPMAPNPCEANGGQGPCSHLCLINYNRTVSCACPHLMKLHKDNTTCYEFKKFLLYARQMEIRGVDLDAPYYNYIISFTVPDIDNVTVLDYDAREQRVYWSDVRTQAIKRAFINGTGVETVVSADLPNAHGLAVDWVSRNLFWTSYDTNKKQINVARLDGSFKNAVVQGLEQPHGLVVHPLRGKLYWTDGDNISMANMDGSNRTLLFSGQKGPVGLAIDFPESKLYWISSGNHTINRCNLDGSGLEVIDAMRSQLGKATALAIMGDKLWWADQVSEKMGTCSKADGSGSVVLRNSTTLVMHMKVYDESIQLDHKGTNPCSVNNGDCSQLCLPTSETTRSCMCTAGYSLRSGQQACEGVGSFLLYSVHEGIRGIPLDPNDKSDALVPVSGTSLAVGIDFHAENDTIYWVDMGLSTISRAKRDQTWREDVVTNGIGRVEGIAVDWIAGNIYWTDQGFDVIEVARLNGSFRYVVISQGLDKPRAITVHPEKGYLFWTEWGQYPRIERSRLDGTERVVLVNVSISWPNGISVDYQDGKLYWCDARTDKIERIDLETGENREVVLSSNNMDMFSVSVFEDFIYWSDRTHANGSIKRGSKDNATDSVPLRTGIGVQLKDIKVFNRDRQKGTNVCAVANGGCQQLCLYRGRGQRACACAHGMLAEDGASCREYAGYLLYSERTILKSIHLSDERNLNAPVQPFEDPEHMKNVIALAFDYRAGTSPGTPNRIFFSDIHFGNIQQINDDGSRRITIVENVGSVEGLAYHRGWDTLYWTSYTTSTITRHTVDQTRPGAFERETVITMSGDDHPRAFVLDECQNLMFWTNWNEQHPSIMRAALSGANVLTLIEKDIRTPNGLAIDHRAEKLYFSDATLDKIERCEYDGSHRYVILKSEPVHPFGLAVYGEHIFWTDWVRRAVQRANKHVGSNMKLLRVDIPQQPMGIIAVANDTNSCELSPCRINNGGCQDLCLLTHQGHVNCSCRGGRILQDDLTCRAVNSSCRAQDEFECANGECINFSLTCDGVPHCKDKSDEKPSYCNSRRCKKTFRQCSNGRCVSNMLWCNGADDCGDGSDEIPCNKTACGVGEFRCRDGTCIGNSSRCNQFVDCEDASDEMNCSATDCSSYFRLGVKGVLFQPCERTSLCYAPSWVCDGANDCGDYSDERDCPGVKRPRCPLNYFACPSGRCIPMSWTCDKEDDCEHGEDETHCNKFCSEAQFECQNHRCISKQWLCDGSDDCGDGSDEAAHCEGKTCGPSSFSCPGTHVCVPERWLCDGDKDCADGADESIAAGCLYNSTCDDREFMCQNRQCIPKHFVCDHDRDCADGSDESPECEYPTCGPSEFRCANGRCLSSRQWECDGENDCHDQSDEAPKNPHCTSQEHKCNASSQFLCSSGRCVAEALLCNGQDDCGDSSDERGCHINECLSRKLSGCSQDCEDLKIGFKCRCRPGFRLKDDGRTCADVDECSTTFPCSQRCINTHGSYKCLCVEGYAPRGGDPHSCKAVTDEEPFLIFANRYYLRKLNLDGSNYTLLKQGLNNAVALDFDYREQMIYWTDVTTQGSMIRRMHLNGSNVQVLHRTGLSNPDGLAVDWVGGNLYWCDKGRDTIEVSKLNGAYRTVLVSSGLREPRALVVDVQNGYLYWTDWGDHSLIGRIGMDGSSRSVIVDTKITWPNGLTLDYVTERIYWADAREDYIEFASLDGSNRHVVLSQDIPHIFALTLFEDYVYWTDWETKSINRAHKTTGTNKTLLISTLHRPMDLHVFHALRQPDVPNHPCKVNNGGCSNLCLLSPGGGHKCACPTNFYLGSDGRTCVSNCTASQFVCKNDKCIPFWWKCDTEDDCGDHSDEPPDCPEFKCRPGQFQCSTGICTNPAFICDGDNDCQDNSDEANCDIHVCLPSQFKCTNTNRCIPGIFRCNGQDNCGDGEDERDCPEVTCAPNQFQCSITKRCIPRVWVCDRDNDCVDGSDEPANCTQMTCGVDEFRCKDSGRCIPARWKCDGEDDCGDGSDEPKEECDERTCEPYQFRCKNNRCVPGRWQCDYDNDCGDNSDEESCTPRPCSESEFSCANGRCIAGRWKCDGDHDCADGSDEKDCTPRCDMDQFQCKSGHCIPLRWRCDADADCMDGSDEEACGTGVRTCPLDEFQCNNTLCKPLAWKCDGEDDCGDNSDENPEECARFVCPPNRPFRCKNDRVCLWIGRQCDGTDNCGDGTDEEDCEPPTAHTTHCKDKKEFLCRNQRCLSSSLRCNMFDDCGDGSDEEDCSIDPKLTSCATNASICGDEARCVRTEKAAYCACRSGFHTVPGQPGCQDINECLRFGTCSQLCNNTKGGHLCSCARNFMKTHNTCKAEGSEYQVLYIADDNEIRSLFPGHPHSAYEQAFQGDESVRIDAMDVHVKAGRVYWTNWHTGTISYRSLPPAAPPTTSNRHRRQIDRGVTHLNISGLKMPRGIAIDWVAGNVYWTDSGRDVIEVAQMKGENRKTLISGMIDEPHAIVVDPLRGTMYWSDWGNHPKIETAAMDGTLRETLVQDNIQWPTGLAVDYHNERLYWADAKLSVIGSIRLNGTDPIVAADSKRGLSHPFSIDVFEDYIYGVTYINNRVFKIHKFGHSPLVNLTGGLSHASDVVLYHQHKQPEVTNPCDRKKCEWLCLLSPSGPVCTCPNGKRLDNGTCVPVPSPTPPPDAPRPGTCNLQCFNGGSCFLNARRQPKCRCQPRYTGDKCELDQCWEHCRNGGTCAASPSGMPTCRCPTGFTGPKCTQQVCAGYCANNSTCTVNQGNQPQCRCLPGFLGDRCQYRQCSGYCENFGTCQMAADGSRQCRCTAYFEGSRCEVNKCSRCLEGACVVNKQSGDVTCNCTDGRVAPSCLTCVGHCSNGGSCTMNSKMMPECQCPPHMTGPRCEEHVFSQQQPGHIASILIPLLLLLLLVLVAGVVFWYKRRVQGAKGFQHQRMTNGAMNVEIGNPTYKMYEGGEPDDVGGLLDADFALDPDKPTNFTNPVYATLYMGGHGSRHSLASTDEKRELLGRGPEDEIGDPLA
UniProt Q9BYF1, 18-740: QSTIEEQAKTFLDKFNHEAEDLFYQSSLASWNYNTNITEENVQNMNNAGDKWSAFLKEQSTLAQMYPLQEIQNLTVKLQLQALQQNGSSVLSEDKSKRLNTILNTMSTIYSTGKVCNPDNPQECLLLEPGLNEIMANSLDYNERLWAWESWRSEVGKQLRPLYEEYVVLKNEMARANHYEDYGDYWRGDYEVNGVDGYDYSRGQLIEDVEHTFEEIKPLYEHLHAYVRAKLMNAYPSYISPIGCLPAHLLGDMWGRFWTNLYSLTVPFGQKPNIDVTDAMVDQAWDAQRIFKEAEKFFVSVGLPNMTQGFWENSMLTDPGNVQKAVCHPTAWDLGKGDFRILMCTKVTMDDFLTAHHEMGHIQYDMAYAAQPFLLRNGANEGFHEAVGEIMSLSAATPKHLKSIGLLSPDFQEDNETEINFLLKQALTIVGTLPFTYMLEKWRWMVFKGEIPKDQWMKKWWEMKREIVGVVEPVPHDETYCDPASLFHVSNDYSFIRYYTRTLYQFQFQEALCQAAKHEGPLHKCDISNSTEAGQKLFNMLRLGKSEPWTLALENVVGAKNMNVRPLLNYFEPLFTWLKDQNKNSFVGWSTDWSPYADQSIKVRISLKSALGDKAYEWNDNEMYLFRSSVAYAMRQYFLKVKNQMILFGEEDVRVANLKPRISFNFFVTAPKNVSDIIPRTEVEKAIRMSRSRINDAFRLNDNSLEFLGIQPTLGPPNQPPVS

pKd: −log10 of the molar value.

Usually pKd stands for −log10 of the Kd, conventionally taken in molar units. What is called koff is a measure of how fast the partners let go of each other. The low end stands for slow dissociation, the high end for fast dissociation. One may read the kon as the rate constant with which the complex forms. Read a high kon as fast association.

“Recombinant human angiotensin-converting enzyme two ectodomain (Gln18-Ser740) (from UniProt Q9BYF1 18-740) (domain or fragment)” had a pKd of 7.36, a koff of 0.00026 s⁻¹ and a kon of 5800 M⁻¹ s⁻¹.

For the origin of these results see article PMC12192683.
